This is a selection; strong and weak results do not stand in their true shares. The source made the active and inactive calls.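 The calls were made as follows: active = activation factor of at least 2 at 20 µM, relative to controls; inactive = the rest.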

Chains of the proteins cited; added tags and fusions are not shown.
UniProt P05186, whole entry: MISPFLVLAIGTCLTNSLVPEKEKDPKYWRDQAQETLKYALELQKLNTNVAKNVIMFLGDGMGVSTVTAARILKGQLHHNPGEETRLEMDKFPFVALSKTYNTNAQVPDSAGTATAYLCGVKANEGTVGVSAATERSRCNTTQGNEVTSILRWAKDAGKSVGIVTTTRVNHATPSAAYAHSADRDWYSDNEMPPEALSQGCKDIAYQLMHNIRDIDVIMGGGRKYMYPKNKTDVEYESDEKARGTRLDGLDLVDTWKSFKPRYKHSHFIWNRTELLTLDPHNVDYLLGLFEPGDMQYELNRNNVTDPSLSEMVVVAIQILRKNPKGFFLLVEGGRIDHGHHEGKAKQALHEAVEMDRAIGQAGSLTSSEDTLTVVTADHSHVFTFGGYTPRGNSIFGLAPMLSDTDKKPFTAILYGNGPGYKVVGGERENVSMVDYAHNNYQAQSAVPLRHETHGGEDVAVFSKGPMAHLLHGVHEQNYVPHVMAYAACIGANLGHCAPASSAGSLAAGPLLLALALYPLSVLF

For the assay, the target named is Alkaline phosphatase, tissue-nonspecific isozyme (Homo sapiens) (UniProt P05186). Put plainly: human TNAP enzyme activators, primary screen, biochemical, luminescent, intermediate phosphate acceptor level (AID 813). Particulars: purified TNAP, CDP-star luminescence, 100 mM DEA, 30 min, at 20 µM; active compounds read high, scale: 0 levamisole-inhibited, 1 vehicle-only enzyme.
Turning to `COc1ccccc1OP(C)(=O)Nc1ccc(C)cc1` (stereo unspecified), the activation factor result is “inactive”. As to `Cc1ccc(NP(C)(=O)Oc2ccccc2)c(C)c1` (stereo unspecified), the activation factor result is “inactive”. Under `CCOP(C)(=S)SCC(=O)NC(C)C(=O)O` (stereo unspecified) stands “inactive”; under `COP1(=S)c2c(C)nn(CCC#N)c2N=C(c2ccc(F)cc2)N1C` (stereo unspecified), “inactive”; under `CP(=O)(NC(=O)Nc1ccccc1)Oc1ccccc1` (stereo unspecified), “inactive”. For `O=C(COc1ccccc1)OC1CN2CCC1CC2` (stereo unspecified), the activation factor result was “inactive”. As for `CP(=S)(Nn1cnnc1)Oc1ccccc1` (stereo unspecified), the figure is inactive: 0.8; as for `Cc1ccc(OCC(=O)OC2CN3CCC2CC3)cc1` (stereo unspecified), “inactive”; as for `O=P1(Nc2ccc(Br)cn2)COc2ccccc2OC1`, “inactive”. As for `Cc1nn(-c2ccccc2)c2c1P(=O)(N1CCOCC1)N(C)C(c1ccccc1)=N2` (stereo unspecified), the entry is “inactive”. On to `Cc1nc2ccc3ccccc3c2s1.O=[N+]([O-])c1cc([N+](=O)[O-])c(O)c([N+](=O)[O-])c1`, for which the activation factor entry is “inactive”. Under `O=P1(Nc2ccccn2)COc2ccccc2OC1` stands “inactive”; under `Cc1ccc(C)c(NP(C)(=O)Oc2ccccc2)c1` (stereo unspecified), “inactive”. For the compound `Cc1cccc(OCC(=O)OC2CN3CCC2CC3)c1` (stereo unspecified), the activation factor entry is “inactive”. As to `CCOP1(=S)c2c(C)nn(CCC#N)c2N=C(c2ccccc2F)N1C` (stereo unspecified), the activation factor result was “inactive”.

As to `O=P(Nc1nccs1)(c1ccccc1)c1nc2ccccc2s1` (stereo unspecified), the activation factor result was “inactive”. As for `O=P1(Nc2nc3ccc(Cl)cc3s2)COc2ccccc2O1` (stereo unspecified), the activation factor result was “inactive”.

Regarding `CP(=O)(Nc1ccccc1F)Oc1ccccc1` (stereo unspecified), the activation factor was inactive: 1. As for `CP(=O)(Nc1ccc2c(c1)OCCO2)Oc1ccccc1` (stereo unspecified), the figure is inactive: 0.8. For the compound `Cc1ccccc1NP(C)(=O)Nc1ccccc1C`, the activation factor was inactive: 1. With `CCOP(C)(=S)SCC(=O)NC(C)(CC)C(=O)O` (stereo unspecified), the activation factor entry was “inactive”.

Consider `c1nnnn1CCn1cnnn1`, for which the activation factor result is “inactive”. Under `O=C(OC1CN2CCC1CC2)c1cccc(Cl)c1` (stereo unspecified) stands “inactive”; under `CN(C)CCOC(=O)C(O)(c1ccccc1)C1CCCCC1` (stereo unspecified), “inactive”; under `CCN(CC)CC(O)COC(=O)C(O)(c1ccccc1)C1CCCCC1` (stereo unspecified), “inactive”. As for `COc1ccccc1OP(C)(=O)Nc1c(C)n(C)n(-c2ccccc2)c1=O` (stereo unspecified), the figure is inactive: 1; as for `CP(=O)(Oc1ccccc1)N1CCOC1=O` (stereo unspecified), “inactive”.

As to `CCc1nc2c(n1)c1c(non1O)c1c2no[n+]1[O-]`, the activation factor entry was “inactive”. As for `CP(=O)(Nc1ccccn1)Oc1ccccc1` (stereo unspecified), the activation factor is inactive: 1.1.

Turning to `Cc1nc2ccc3ccccc3c2o1.O=[N+]([O-])c1cc([N+](=O)[O-])c(O)c([N+](=O)[O-])c1`, the activation factor entry was “inactive”.

Turning to `COc1ccccc1OP(C)(=O)Nc1ccc(C)c(C)c1` (stereo unspecified), the activation factor entry is “inactive”.

These data come from PubChem BioAssay AID813 (Sanford-Burnham Center for Chemical Genomics, 2007).
